Assays:
[1] = system: FosA3 W34A; conditions: p < 0.05
[2] = system: FosA3 W46A; conditions: p < 0.05

SMILES: O=c1[nH]n2cc(-c3n[nH]c(-c4cnc5c(Br)c(=O)[nH]n5c4)c3[N+](=O)[O-])cnc2c1Br [ANY1, 3-bromo-6-[3-(3-bromo-2-oxo-1H-pyrazolo[1,5-a]pyrimidin-6-yl)-4-nitro-1H-pyrazol-5-yl]-1H-pyrazolo[1,5-a]pyrimidin-2-one]
- Fold-Change in Kd (vs WT) [1]: 6.0
- Fold-Change in Kd (vs WT) [2]: 5.6
